Among the data in patent US9815791B2, “Alkylpyrazolyl guanidine F1F0-ATPase inhibitors and therapeutic uses thereof” (Lycera Corporation, priority 2013, dated 2017) are EC50 and IC50 values, retold here.

One assay concerns Ramos cells. The assay can be described thus: Cytotoxicity in Ramos cells. The note with it: read-out: Ramos Cell EC50. On the procedure: (§1) Exemplary compounds described in above Examples were tested for activity against F1F0-ATPase by measuring the ability of the compounds to inhibit ATP synthesis. In addition, the compounds were assessed for cytotoxicity in Ramos cells. Inhibition of F1F0-ATPase activity in synthesizing ATP and cytotoxicity in Ramos cells were measured according to the procedures described in K. M. Johnson et al. Chemistry & Biology 2005, 12, 485-496.

The target of another assay is F1F0-ATPase (Bos taurus, UniProt P13621). The assay can be described thus: Inhibition of F1F0-ATPase activity in synthesizing ATP. The note with it: read-out: ATP Syn IC50; inhibition of ATP synthesis. On the procedure: as §1

Molecules are shown by their SMILES.

Regarding `COc1ccc(C(=O)N=C(Nc2cccc(C(F)(F)F)c2)Nc2n[nH]c(C(F)(F)F)c2C)cc1`, in the assay with Ramos cells, the concentration for a half-maximal effect (EC50) is < 10 µM. The concentration for half-maximal inhibition (IC50) on F1F0-ATPase was < 10 µM.

For the compound `Cc1c(NC(=NC(=O)c2cccc(Cl)c2)Nc2cccc(C(F)(F)F)c2)n[nH]c1C(F)(F)F`, the concentration giving a half-maximal response (EC50) in the assay with Ramos cells is < 10 µM. In addition, on F1F0-ATPase, the concentration for half-maximal inhibition (IC50) was < 10 µM.

As for `Cc1c(NC(=NC(=O)c2ccc(Cl)c(F)c2)Nc2cccc(C(F)(F)F)c2)n[nH]c1C(F)(F)F`, in the assay on Ramos cells, the EC50 was < 10 µM. Besides, the IC50 on F1F0-ATPase was < 10 µM.

For `Cc1c(NC(=NC(=O)c2cccc(Cl)c2)Nc2ccc(Cl)cc2Cl)n[nH]c1C(F)(F)F`, the half-maximal effective concentration (EC50) with Ramos cells is < 10 µM. Besides, at F1F0-ATPase, the IC50 is < 10 µM.

As for `Cc1c(NC(=NC(=O)c2ccc(C(F)(F)F)cc2)Nc2cc(F)cc(Cl)c2)n[nH]c1C(F)(F)F`, the EC50 in the assay on Ramos cells is < 10 µM. On F1F0-ATPase, the IC50 is < 10 µM.

As for `Cc1c(NC(=NC(=O)c2ccc(F)c(F)c2)Nc2cccc(Cl)c2)n[nH]c1C(F)(F)F`, the EC50 in the assay on Ramos cells was < 10 µM. On F1F0-ATPase, the IC50 was < 10 µM.

Take `Cc1c(NC(=NC(=O)c2ccc(F)c(F)c2)Nc2cccc(C(F)(F)F)c2)n[nH]c1C(F)(F)F`: the EC50 with Ramos cells was < 10 µM. The IC50 at F1F0-ATPase was < 10 µM.

The EC50 is the concentration needed to bring the measured effect to its halfway point. The term IC50 denotes the concentration that inhibits the measured activity by half.
